Values quoted from earlier work in article PMC3529809 (Steroids, 2012).

Test system: endogenous androgen receptor (AR) in MDA-MB-435 breast or LNCaP prostate cancer cells
Settings: read-out: Ki for endogenous AR; MDA-MB-435 or LNCaP cells; cited from earlier work

SMILES: C[C@]12CC[C@H](O)CC1=CC[C@@H]1[C@@H]2CC[C@]2(C)C(=O)CC[C@@H]12 [DHEA, 3β-hydroxy-androst-5-ene-17-one]
- Ki: ~1200 nM
